For this test, the target named is renin (Homo sapiens, UniProt P00797). The test is described as follows: in vitro renin inhibitory activity, radioimmunoassay for angiotensin I. The conditions noted are these: read-out: IC50 Renin; incubated 2 hours at 37° C. with angiotensinogen. The protocol:
The effectiveness of the aforementioned compounds is determined by a test for in vitro renin inhibitory activity. This activity is determined by a standard radioimmunoassay for angiotensin I. In this assay the enzyme, renin, incubated for 2 hours at 37° C. in the presence of a substrate, angiotensinogen, generates the product, angiotensin I. Test compounds are added to the incubation mixture. Relative activity is reported as the IC50, which is the molar concentration of test compound causing a 50% inhibition of the renin activity.

The chains behind the UniProt entries cited, without tags or fusion partners. Residues count along the entry.
UniProt P00797, 67-406 limits assumed: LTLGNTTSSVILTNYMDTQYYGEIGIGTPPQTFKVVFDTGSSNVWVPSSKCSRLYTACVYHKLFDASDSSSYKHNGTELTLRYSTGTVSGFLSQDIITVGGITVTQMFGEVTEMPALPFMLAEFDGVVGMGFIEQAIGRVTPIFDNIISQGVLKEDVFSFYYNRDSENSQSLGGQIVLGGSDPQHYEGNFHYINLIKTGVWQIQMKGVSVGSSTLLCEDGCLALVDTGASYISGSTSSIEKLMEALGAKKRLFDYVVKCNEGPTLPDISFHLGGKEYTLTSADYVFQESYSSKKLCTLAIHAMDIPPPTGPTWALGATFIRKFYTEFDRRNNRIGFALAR

This is an account of results in patent publication US5219851A, “Tetrahydroisoquinoline-type renin inhibiting peptides” (Warner-Lambert Company, priority 1991, dated 1993).

Structures are written as SMILES.

By IC50 is commonly meant the concentration that gives 50% inhibition. For the molecule `CC(C)CC(O)C(O)C(CC1CCCCC1)NC(=O)CNC(=O)C1Cc2ccccc2CN1S(=O)(=O)N1CCOCC1` (stereo not shown), the IC50 came to 1010 nM.
